# High-throughput results: PubChem BioAssay, National Center for Advancing Translational Sciences (NCATS)
# Shown are actives, neighbours in structure and some others; about 16% of the full set was active somewhere.
# TDP1 cell noCPT: qHTS for Inhibitors of human tyrosyl-DNA phosphodiesterase 1 (TDP1): qHTS in cells in absence of CPT; DT40 Tdp1-/- hTDP1 cells, no CPT, ATP luminescence, 48 h; Potency, µM (titrated, usually from 46.2 µM), inactives show at the highest dose activity change, negative = growth inhibition, most hits filed as inhibitors; actives 15% (n = 420,000); AID 686978, 2013; also: potency is read from the fitted curve at half-maximal effect; % is scaled to controls: 0 for no effect and ±100 for the full control effect; nearly all actives have a fitted effect of over 55% in size
#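 Growth kinetics read by CellTiter-Glo luminescence after ≥48 hr at 37 °C. Cells: DT40 Tdp1-/- stably carrying human TDP1, 400 per well, compound exposure in the absence of CPT (DMSO vehicle).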
# miR-21 reporter: miR-21 reporter, rising signal; Potency, µM (top dose mostly 38.3 µM), for the others: at the highest dose reporter change, positive = more light; 340,000 tested, under 10 active; HeLa miR-21 FLuc reporter, luciferase, 48 h; active = well fitted rising curve with a large enough effect; inconclusive = small, poorly fitted or top-dose-only effect; inactive = no such curve, though single readings can be large or run the other way;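 note: % of control where 0% means no effect; miR-21 action dims this reporter so a rising signal means less miR-21 action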
#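 Luminescence from a firefly luciferase reporter carrying a miR-21 binding site downstream, stably expressed under a CMV promoter in HeLa cells that make miR-21 endogenously, reports miRNA modulation after 48 h compound exposure up to approximately 40uM final.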
# TDP1 cell CPT: growth inhibition of DT40 Tdp1-/-;hTDP1 cells with camptothecin (screen for TDP1 inhibitors) | chicken DT40 Tdp1-/-;hTDP1 cells + 20 nM CPT, ATP luminescence, 48 h | Potency, µM (highest dose often 46.2 µM), for the others: at the top dose activity change, negative = growth inhibition, most hits filed as inhibitors | actives 12% (n = 420,000) | AID 686979; also: potency is read from the fitted curve at half-maximal effect; % is scaled to controls: 0 for no effect and ±100 for the full control effect; nearly all actives have a fitted effect of over 55% in size
#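 Cell growth measured by CellTiter-Glo luminescence after a minimum 48 h, 37 C compound exposure with 20 nM CPT in Tdp1-knockout DT40 cells stably expressing hTDP1, seeded 400/well; qHTS titration format.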
# uPA generation: blocks generation of uPA at the cell surface | cell surface uPA generation assay, qHTS | Potency, µM (titrated, usually from 38.3 µM), for inactives: top-dose activity change, negative = inhibition, actives largely listed as inhibitors | actives 0.31% (n = 330,000); active = well fitted inhibition curve with a large enough effect; inconclusive = small, poorly fitted or top-dose-only effect; inactive = no such curve, though single readings can be large or run the other way; tested in mouse RAW 264.7 cells; also: potency is read from the fitted curve at half-maximal effect; % is scaled to controls: 0 for no effect and ±100 for the full control effect; nearly all actives have a fitted effect of over 55% in size
# TDP1 block: inhibitors of human tyrosyl-DNA phosphodiesterase TDP1. Q9NUW8. recombinant TDP1, AlphaScreen DNA substrate cleavage. Potency, µM (series often up to 130 µM), for the others: at the highest dose activity change, negative = inhibition, hits mostly inhibitors. actives 0.28% (n = 350,000). AID 485290; also: potency is read from the fitted curve at half-maximal effect; % is scaled to controls: 0 for no effect and ±100 for the full control effect; nearly all actives have a fitted effect of over 40% in size
#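 Tdp1 1 nM final; 15 min RT w/ cpd; substrate 15 nM, 5 min; beads 10 ug/ml, 10 min; AlphaScreen read. Neg ctrl: no enzyme.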
# Active calls of the source: *; ? = inconclusive; / = no result; [ ] = remark or other dose. Unless noted, calls follow the shape of the dose curve; as a rule, active = well fitted curve in the direction sought with a large enough effect; inconclusive = small, poorly fitted or top-dose-only effect, or another doubt; inactive = no such curve, though single readings can be large; an effect the other way counts as inactive or inconclusive.
SMILES,TDP1 cell noCPT,miR-21 reporter,TDP1 cell CPT,uPA generation,TDP1 block
COc1ccc(N(CC(=O)NC2CC3CCC2C3)S(=O)(=O)c2ccc(C)cc2)cc1Cl (configuration not stated),23µM*,/,?,/,/
C/C(N)=C(/C#N)C(=O)COC(=O)CNS(=O)(=O)c1c(F)cccc1F,-7%,-2%,-7%,10%,-7%
COc1ccc(C(=O)Nc2cccc(/C=C(\CCC(=O)O)c3nc4ccccc4s3)c2)cc1,?,-42%,?,0%,/
CCOc1ccc(CCN2C(=O)C(=O)N([C@@H](Cc3ccccc3)CN3CCC[C@H]3CN3C(=O)C(=O)NC[C@@H]3Cc3ccccc3)C[C@@H]2Cc2ccccc2)cc1,23µM*,/,?,/,/
CCOc1ccc(CCN2C(=O)C(=O)N([C@@H](Cc3ccccc3)CN3CCC[C@H]3CN3C(=O)C(=O)NC[C@@H]3Cc3ccccc3)C[C@@H]2CC(C)C)cc1,18µM*,/,?,/,/
Cn1cccc1C(=O)OCC(=O)N1CCN(c2ccccc2)CC1,?,/,-28%,2%,1%
COc1ccc(N=C(C)C2=C(O)c3ccccc3C2=O)cc1,?,-26%,23µM*,?,5%
CCOc1ccc(N=C(C)C2=C(O)c3ccccc3C2=O)cc1,?,-62%,22%,-6%,/
CC(=O)Nc1ccc(N=C(C2=C(O)c3ccccc3C2=O)c2ccccc2)cc1,?,-28%,3.3µM*,?,8%
COc1ccc2cc(-c3[nH]ncc3CN3CCCC3c3nonc3C)ccc2c1 (configuration not stated),23µM*,4%,?,?,8%
OCC1(c2cc(C(F)(F)F)n[nH]2)CCCCC1,-16%,6%,8%,/,1%
COc1ccc(NC(=O)N(C)C[C@H]2Oc3ccc(NS(=O)(=O)c4cccs4)cc3C(=O)N([C@H](C)CO)C[C@@H]2C)cc1,-2%,/,-6%,0%,1%
COc1ccccc1CNC(=O)c1ccc(-c2nc(CS(=O)c3ccc(C)cc3)c(C)o2)cc1 (configuration not stated),13µM*,-8%,?,/,14%
Cc1oc(-c2ccc(C(=O)NCc3ccc(F)cc3)cc2)nc1CS(=O)c1ccccc1 (configuration not stated),21µM*,17%,?,/,3%
Cc1ccc(CNC(=O)c2ccc(-c3nc(CS(=O)c4ccccc4)c(C)o3)cc2)cc1 (configuration not stated),8.2µM*,4%,18µM*,/,0%
Cc1ccc(S(=O)Cc2nc(-c3ccc(C(=O)NCc4cccc(C)c4)cc3)oc2C)cc1 (configuration not stated),?,-1%,10%,/,-3%
COc1ccc(CNC(=O)c2ccc(-c3nc(CS(=O)c4ccc(C)cc4)c(C)o3)cc2)cc1 (configuration not stated),?,8%,?,/,0%
CCCCCCCC(=O)Nc1ccc(S(=O)(=O)Nc2nccs2)cc1,-27%,-3%,-5%,5%,3%
CCC(=O)Nc1c2c(nn1-c1ccc(C)cc1)CS(=O)(=O)C2,13%,0%,-4%,-28%,2%
CC(NS(=O)(=O)c1ccc(Br)cc1)C(=O)NCCc1ccccc1 (configuration not stated),-5%,-2%,10%,10%,3%
Cc1cc(C)nc(NS(=O)(=O)c2ccc(N/C=C/C(=O)c3ccc(Cl)cc3)cc2)n1,-26%,-26%,-24%,0%,0%
COc1ccc(-c2csc(N3CCN(c4cc5c(cc4Cl)nc(-c4ccncc4)n5CCOCCO)CC3)n2)cc1,?,5%,12µM*,0%,/
OCCCn1c(CCCNc2nc(-c3cccc(Br)c3)cs2)nc2cc(Cl)c(N3CCCCC3)cc21,16µM*,15%,?,-7%,/
COc1ccc(-c2csc(NCCc3nc4cc(Cl)c(N5CCCCC5)cc4n3CCOCCO)n2)cc1,9.2µM*,/,23µM*,-16%,/

# Some of the entries so far, tab-delimited.
SMILES	TDP1 cell noCPT	miR-21 reporter	TDP1 cell CPT	uPA generation	TDP1 block
Cc1cc(C)nc(NS(=O)(=O)c2ccc(N/C=C/C(=O)c3ccc(Cl)cc3)cc2)n1	-26%	-26%	-24%	0%	0%
COc1ccc(-c2csc(N3CCN(c4cc5c(cc4Cl)nc(-c4ccncc4)n5CCOCCO)CC3)n2)cc1	?	5%	12µM*	0%	/

# Next part.
SMILES,TDP1 cell noCPT,miR-21 reporter,TDP1 cell CPT,uPA generation,TDP1 block
NC(=O)N[C@@H](Cc1c[nH]c2ccccc12)C(=O)OCC(=O)N1CCCCC1,-15%,0%,1%,0%,6%
O=C1CCN(CCc2ccccc2)CCN1[C@H](COc1ccccc1)c1ccccc1,14µM*,7%,15µM*,-4%,/
CCCN1CCC(=O)N([C@H](CO)c2ccccc2)CC1,1%,1%,-3%,11%,/
CC(C)CN1CCC(=O)N(CCOc2ccccc2)CC1,0%,-44%,-1%,2%,/
CCCN1CCC(=O)N([C@H](COc2ccccc2)c2ccccc2)CC1,21µM*,-5%,?,-10%,/
CC(C)CN1CCC(=O)N([C@H](COc2ccccc2)c2ccccc2)CC1,22µM*,4%,?,-15%,/
CN1CCC(NC(=O)CCc2ccccc2)CC1,1%,-5%,1%,3%,/
CCCC(=O)Nc1cccc(S(=O)(=O)N(C)c2ccccc2)c1,?,-5%,16µM*,-11%,4%
CN(c1ccccc1)S(=O)(=O)c1cccc(NC(=O)CCNC(=O)c2ccc(Cl)cc2)c1,?,/,23µM*,-8%,-14%[56.1 µM]
CN(c1ccccc1)S(=O)(=O)c1cccc(NC(=O)COc2ccccc2)c1,?,/,?,-7%,0%[56.1 µM]
CN(c1ccccc1)S(=O)(=O)c1cccc(NC(=O)CCNC(=O)c2ccc([N+](=O)[O-])cc2)c1,?,/,?,-6%,3%
CN(c1ccccc1)S(=O)(=O)c1cccc(NC(=O)CCNC(=O)c2ccccc2)c1,16µM*,/,18µM*,-13%,0%
CCNC(=O)C1(C)CCN(C(=O)c2cc(F)cc(F)c2)C1 (configuration not stated),18%,/,-3%,/,/
CC1Nc2ncnc(N3CCc4ccccc4C3)c2N(Cc2ccc(Br)cc2)C1=O (configuration not stated),23µM*,/,16µM*,?,2%
O=C1C(Cc2ccccc2)Nc2ncnc(N3CCCCC3)c2N1Cc1ccc(Cl)cc1 (configuration not stated),16µM*,/,?,-12%,/
O=C1C(Cc2ccccc2)Nc2ncnc(N3CCOCC3)c2N1Cc1ccc(Br)cc1 (configuration not stated),?,/,?,-2%,/
O=C1C(Cc2ccccc2)Nc2ncnc(N3CCc4ccccc4C3)c2N1Cc1ccccc1 (configuration not stated),16µM*,/,?,?,3%

# Part of the list above in a different format:
SMILES | TDP1 cell noCPT | miR-21 reporter | TDP1 cell CPT | uPA generation | TDP1 block
O=C1C(Cc2ccccc2)Nc2ncnc(N3CCc4ccccc4C3)c2N1Cc1ccccc1 (configuration not stated) | 16µM* | / | ? | ? | 3%
O=C1C(Cc2ccccc2)Nc2ncnc(N3CCOCC3)c2N1Cc1ccc(Br)cc1 (configuration not stated) | ? | / | ? | -2% | /
CCNC(=O)C1(C)CCN(C(=O)c2cc(F)cc(F)c2)C1 (configuration not stated) | 18% | / | -3% | / | /
